Experimental data published in ChEMBL document CHEMBL5442175, “EUbOPEN Chemogenomics Library - PDSP Secondary Binding” (2024).

Assays:
[1] = molecular target: Kappa-type opioid receptor (Homo sapiens, UniProt P41145)
Mu-type opioid receptor = Mu-type opioid receptor (Homo sapiens, UniProt P35372)

SMILES: O=C1NCN(c2ccccc2)C12CCN(CCCOc1ccc(F)cc1)CC2
- Ki [1]: 914 nM
- Ki (Mu-type opioid receptor): 156 nM
